Results from patent US7931791B2, “Method of detecting analyte-biomolecule interactions” (Southern Illinois University Carbondale, priority 2006, dated 2011).

Biological target: T1, ligand binding domain (LBD) of the human progesterone receptor (Homo sapiens, UniProt P06401)
T1 construct: purchased Invitrogen (Carlsbad, Calif.)
T1 sequence (P06401 679-913 limits assumed): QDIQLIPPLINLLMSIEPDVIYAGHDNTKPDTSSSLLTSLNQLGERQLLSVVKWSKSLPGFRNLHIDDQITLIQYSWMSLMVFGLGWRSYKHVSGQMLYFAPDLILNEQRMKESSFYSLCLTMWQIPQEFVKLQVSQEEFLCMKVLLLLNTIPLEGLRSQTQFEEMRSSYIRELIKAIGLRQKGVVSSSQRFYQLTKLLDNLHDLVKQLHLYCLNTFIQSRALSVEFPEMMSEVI
Assay: progesterone ligand binding assay by capillary IEF with fluorescence anisotropy
Details: ~100 nM of each labeled protein, 100 nM fluorescein labeled progesterone, 1% ampholytes, focused at 300V; FIG. 9D

How did the “anisotropy in the region containing the progesterone ligand/receptor complex” value turn out when `CC(=O)[C@H]1CC[C@H]2[C@@H]3CCC4=CC(=O)CC[C@]4(C)[C@H]3CC[C@]12C` [progesterone] was run?
The value was “high anisotropy”.
